Literature values, collected in PMC9456106, “PET Probes for Preclinical Imaging of GRPR-Positive Prostate Cancer: Comparative Preclinical Study of [^68Ga]Ga-NODAGA-AMBA and [^44Sc]Sc-NODAGA-AMBA” (International Journal of Molecular Sciences, 2022).

Conditions: cited from earlier work

Substance: ^99mTc-GGC-(Ornithine)3-BN(2-14) [[^99mTc]Tc-BN-O]
- tracer accumulation in the heart, lung, muscle, and spleen: below 6 % ID/g
